Biological target: eeAChE inhibited with a VX analogue (EMP) (Electrophorus electricus, UniProt O42275)
Test: Reactivation of EMP-inhibited eeAChE by QMPs, Ellman's assay
Conditions: QMP 4 min [sic], pH 8.0, 37° C.

**Q.** For `CCCCN(C)Cc1ncccc1O`, which “k, apparent rate constant of first-order or pseudo-first-order AChE reactivation” value (“k, apparent rate constant” below) is on record?
**A.** 0.080 ± 0.003 h⁻¹

**Q.** `CCCN(C)Cc1ncccc1O` was tested. Which “k, apparent rate constant” value did it give?
**A.** 0.063 ± 0.004 h⁻¹

**Q.** With `CCN(C)Cc1ncccc1O` as the compound, how does the “k, apparent rate constant” value read?
**A.** 0.090 ± 0.003 h⁻¹

**Q.** For `CCN(CC)Cc1ncccc1O` [C7, 2-((diethylamino)methyl)pyridin-3-ol], which “k, apparent rate constant” value is on record?
**A.** 0.056 ± 0.003 h⁻¹

**Q.** With `Oc1cccnc1CN1CCCC1` [C8, 2-(pyrrolidin-1-ylmethyl)pyridin-3-ol] as the compound, how does the “k, apparent rate constant” value read?
**A.** 0.088 ± 0.003 h⁻¹

Same assay, conditions: pH 8.0, 37° C.

**Q.** With `CCN(CC)Cc1ncccc1O` [C7, 2-((diethylamino)methyl)pyridin-3-ol] as the compound, how does the “reactivation activity/kinetics, in words” value read?
**A.** slower kinetics
